Experimental data published in US20260137794A1, “LIGAND-DRUG CONJUGATE AND USE THEREOF” (SYSTIMMUNE, INC., priority 2022, published 2026).

What was measured:
Type in all cases: cell-based, Human
[1] = tested on: U937; assay: CD33 cell killing experiment by MTS method, U937; details: U937, CD33 moderate expression, 5 days, read-out: Test drug IC50
Protocol: (§1) Pharmacodynamic test at cellular level: cell plating was performed on a 96-well plate in a certain density. After the cells adhered to the wall (usually taking at least 4 h), a series of drugs in several folds of dilution were added to each well plate to act for a certain period of time, for killing the cells. At the end of action of the drugs, a certain amount of MTS was added to react at 37° C. under 5% CO2 for 1-4 h. After color development using the MTS reagent, the OD 490 nm absorbance value was detected using a microplate reader, and then the IC50 for cell killing was analyzed and calculated.
(§2) Before addition, according to the concentration of each test sample, a drug (5×mother liquor concentration) was prepared using a preheated 1% FBS culture medium according to the initial concentration of 5.0 μM, and then diluted according to 10 folds of gradient concentration, totaling 8 detection points, followed by standing for later use. During the preparation, each concentration was uniformly mixed using an oscillator, specifically, oscillating for 2-3 sec at a time, with an interval of 1 sec, and then oscillating again, repeating 2-3 times.
(§3) The final concentration of the antibody and the antibody conjugated drug was 0 (Vehicle), 0.6 pM, 4.25 pM, 29.75 pM, 0.21 nM, 1.46 nM, 10.20 nM, 71.43 nM, 500 nM.
(§4) • 1) Cell revival: after preheating in a 37° C.′ water bath, 9 mL of the culture medium was taken and put in a centrifuge tube for later use; the cells were taken out from liquid nitrogen, immediately quickly shaked at 37° C.′ to fully thaw, then transferred into the centrifuge tube, and centrifuged at 1000 rpm for 3 min at room temperature: the supernatant was discarded, and the precipitate was re-suspended with 1 mL of complete culture medium, where the process should be gentle, to prevent bubbles from being blown out, thereby reducing damage to the cells; the cells were transferred into a culture flask, and cultivated in a cell incubator at 37° C., 5% CO2 and 95% relative humidity. […]

[2] = tested on: A431; assay: CD33 cell killing experiment by MTS method, A431; details: A431, CD33 negative, 5 days, read-out: Test drug IC50
Protocol: as §1, §2, §3, §4

[3] = tested on: CMK; assay: CD33 cell killing experiment by MTS method, CMK; details: CD33 moderate expression, 5 days, read-out: Test drug IC50
Protocol: as §1, §2, §3, §4

[4] = tested on: HEL92.1.7; assay: CD33 cell killing experiment by MTS method, HEL92.1.7; details: HEL92.1.7, CD33 high expression, 5 days, read-out: Test drug IC50
Protocol: as §1, §2, §3, §4

[5] = tested on: HL-60; assay: CD33 cell killing experiment by MTS method, HL-60; details: HL-60, CD33 moderate expression, 5 days, read-out: Test drug IC50
Protocol: as §1, §2, §3, §4

B1: ANTI-CD33-R01-1 (2) - Ex01 (8) (conjugate)
light: DIQLTQSPSTLSASVGDRVTITCRASESLDNYGIRFLTWFQQKPGKAPKLLMYAASNQGSGVPSRFSGSGSGTEFTLTISSLQPDDFATYYCQQTKEVPWSFGQGTKVEVKRTVAAPSVFIFPPSDEQLKSGTASVVCLLNNFYPREAKVQWKVDNALQSGNSQESVTEQDSKDSTYSLSSTLTLSKADYEKHKVYACEVTHQGLSSPVCTKSFNRGEC
heavy: EVQLVQSGAEVKKPGSSVKVSCKASGYTITDSNIHWVRQAPGQSLEWIGYIYPYNGGTDYNQKFKNRATLTVDNPTNTAYMELSSLRSEDTAFYYCVNGNPWLAYWGQGTLVTVSSASTKGPSVFPLAPSSKSTSGGTAALGCLVKDYFPEPVTVSWNSGALTSGVHTFPAVLQSSGLYSLSSVVTVPSSSLGTQTYICNVNHKPSNTKVDKRV[human IgG1 Fc not spelt out]
B1 was tested, and the IC50 [1] was 6.63 nM, the IC50 [2] was 14.7 nM and the IC50 [3] was 2.52 nM. For the same molecule, the IC50 [4] was 2.14 nM and the IC50 [5] was 2.22 nM.
